Like-named read-outs stand apart in the source and are kept apart here.
Assays:
[1] = target: EED (1-441)-His protein (Homo sapiens, UniProt O75530); assay: EED-H3K27Me3 peptide competition binding assay by AlphaScreen
Description: EED-H3K27Me3 Peptide Competition Binding Assay by AlphaScreen (α-Screen)
To assess the compounds' potency in the EED-H3K27Me3 competition binding assay, compounds were serially diluted 3-fold in DMSO to obtain a total of twelve concentrations. Then compounds at each concentration (75 nL of each) were transferred by Mosquito into a 384-well Perkin Elmer ProxiPlate 384 plus plates. 8 uL of solutions containing 30 nM EED (1-441)-His protein and 15 nM biotin-H3K27Me3 (19-33) peptide in the buffer (25 mM HEPES, pH 8, 0.02% Tween-20, 0.5% BSA) were added to the wells and then incubated with compound for 20 min. AlphaScreen detection beads mix was prepared immediately before use by mixing nickel chelate acceptor beads and streptavidin donor beads in a 1:1 ratio (Perkin Elmer, Product No. 6760619C/M/R) into the buffer described above. Then 4 μL of detection beads mix was added to the plate and incubate in the dark at the rt for 1 h. The final concentration of donor and acceptor beads was 10 μg/mL for each. Plates were read on EnVision (PerkinElmer) using the AlphaScreen setting adapted for optimal signal detection with a 615 nm filter, after sample excitation at 680 nm. The emission signal at 615 nm was used to quantify compounds inhibition. […]

Protein sequences, listed by entry. Tags and fused reporters are not part of them.
UniProt O75530, whole entry: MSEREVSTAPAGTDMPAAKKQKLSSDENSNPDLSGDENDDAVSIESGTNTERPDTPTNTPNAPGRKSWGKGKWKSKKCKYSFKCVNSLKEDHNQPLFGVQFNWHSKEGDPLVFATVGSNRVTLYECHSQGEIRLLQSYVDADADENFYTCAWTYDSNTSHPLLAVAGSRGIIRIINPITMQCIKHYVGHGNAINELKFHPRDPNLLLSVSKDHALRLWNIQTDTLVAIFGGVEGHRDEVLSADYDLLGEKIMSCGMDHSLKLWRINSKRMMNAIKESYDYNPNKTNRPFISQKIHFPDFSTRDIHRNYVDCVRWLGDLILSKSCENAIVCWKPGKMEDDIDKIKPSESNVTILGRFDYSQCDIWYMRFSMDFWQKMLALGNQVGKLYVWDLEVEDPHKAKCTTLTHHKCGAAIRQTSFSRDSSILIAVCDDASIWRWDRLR
UniProt Q15022, whole entry partner: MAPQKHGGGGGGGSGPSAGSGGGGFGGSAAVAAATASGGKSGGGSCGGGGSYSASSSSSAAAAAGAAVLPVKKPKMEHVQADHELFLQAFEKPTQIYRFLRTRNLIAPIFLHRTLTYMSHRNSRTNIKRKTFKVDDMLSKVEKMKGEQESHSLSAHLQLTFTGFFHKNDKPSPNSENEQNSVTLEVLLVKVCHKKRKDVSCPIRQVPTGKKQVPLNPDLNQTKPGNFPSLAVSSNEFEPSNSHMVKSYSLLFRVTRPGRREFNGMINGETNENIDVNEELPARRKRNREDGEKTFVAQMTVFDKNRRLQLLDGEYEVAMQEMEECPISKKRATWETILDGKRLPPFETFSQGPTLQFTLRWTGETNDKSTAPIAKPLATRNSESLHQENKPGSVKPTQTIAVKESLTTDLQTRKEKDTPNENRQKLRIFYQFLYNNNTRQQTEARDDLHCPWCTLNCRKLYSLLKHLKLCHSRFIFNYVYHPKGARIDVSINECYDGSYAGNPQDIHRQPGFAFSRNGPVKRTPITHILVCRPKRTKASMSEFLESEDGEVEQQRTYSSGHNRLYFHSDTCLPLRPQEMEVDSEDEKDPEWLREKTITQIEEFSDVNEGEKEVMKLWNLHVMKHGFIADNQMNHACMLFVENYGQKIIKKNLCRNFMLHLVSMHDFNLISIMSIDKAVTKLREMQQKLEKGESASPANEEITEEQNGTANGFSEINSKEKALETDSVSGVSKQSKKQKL
UniProt Q15910, whole entry partner: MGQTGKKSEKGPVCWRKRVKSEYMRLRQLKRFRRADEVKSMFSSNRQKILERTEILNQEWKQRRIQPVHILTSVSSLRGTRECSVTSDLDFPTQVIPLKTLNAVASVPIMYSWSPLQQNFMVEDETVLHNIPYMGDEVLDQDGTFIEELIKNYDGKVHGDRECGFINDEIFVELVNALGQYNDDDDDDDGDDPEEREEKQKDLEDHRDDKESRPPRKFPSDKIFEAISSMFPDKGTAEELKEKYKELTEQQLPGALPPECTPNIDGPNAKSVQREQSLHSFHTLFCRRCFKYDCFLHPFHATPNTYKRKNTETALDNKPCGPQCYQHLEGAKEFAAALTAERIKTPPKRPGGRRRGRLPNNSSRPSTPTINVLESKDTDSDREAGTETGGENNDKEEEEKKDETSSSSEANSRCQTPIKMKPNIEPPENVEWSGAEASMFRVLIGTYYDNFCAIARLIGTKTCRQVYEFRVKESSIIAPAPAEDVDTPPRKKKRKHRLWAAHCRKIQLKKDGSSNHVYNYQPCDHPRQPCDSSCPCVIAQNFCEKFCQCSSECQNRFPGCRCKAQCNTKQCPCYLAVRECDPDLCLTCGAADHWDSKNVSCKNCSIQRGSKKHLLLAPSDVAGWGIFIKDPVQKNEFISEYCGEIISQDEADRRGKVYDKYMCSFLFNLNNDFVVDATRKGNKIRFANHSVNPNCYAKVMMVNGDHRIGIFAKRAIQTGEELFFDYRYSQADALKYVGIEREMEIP
UniProt Q6ZN18, whole entry partner: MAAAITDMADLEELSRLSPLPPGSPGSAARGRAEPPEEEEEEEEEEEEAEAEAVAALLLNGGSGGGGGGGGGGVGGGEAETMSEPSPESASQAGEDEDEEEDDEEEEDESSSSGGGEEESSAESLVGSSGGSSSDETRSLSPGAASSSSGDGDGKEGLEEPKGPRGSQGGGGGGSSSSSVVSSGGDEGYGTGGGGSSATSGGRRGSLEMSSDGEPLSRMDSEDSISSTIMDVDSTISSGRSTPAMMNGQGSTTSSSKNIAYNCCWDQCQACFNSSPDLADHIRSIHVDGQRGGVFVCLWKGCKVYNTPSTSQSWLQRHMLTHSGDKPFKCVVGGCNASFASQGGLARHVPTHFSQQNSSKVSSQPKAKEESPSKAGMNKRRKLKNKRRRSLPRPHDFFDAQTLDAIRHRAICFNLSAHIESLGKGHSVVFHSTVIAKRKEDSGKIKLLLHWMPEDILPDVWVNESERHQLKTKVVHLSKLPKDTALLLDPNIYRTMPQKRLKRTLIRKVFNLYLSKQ
UniProt Q09028, whole entry partner: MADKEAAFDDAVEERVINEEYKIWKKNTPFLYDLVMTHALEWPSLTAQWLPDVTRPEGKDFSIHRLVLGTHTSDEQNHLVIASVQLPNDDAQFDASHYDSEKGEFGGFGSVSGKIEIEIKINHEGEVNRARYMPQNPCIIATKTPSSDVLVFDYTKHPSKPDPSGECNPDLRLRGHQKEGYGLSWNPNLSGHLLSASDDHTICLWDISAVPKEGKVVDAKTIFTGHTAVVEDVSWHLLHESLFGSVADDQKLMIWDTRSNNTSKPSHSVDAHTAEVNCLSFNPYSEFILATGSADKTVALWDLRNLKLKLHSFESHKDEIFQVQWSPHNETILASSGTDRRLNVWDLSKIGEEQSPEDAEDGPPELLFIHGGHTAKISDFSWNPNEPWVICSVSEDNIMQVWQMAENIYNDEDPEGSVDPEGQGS

[2] = tested on: H3K27 methylation in G401 cell; assay: ELISA (H3K27 methylation) assay in G401 cells
Description: (§1) Compounds of the present invention were assessed for their ability to inhibit PRC2 activity in a pentameric complex of EZH2, SUZ12, EED, Rbap48 and AEBP in biochemical assays. The ability of compounds of the present invention to inhibit cellular activity of PRC2 was assessed by analysing histone H3 lysine 27 methylation in human cell lines. The ability of compounds of the present invention to inhibit cancers was derived from their ability to modulate activity in human cancer cell lines bearing specific dependence to PRC2 activity to maintain cancerous growth.
ELISA (H3K27 Methylation) Assay
Representative compounds of the present invention were serially and separately diluted 3-fold in DMSO to obtain a total of eight or twelve concentrations. Then the compounds were added to G401 cell cultured in 384-well plate at 1:500 dilution to obtain the highest concentration of 20 μM. The cells were further cultured for 48 h before ELISA procedure. […]
ELISA protocol: Cell lysates were transferred to the wells of a 384-well plate and the final volume was adjusted to 50 μL per well with PBS. […] The signal was read using a PerkinElmer Envision Reader. The H3K27 methylation readouts were normalized using H3 signal and then percentage inhibition was calculated against the samples treated with DMSO. […]

[3] = target: wild type PRC2 (wtPRC2) complex (Homo sapiens, UniProt O75530); assay: EED LC-MS assay (SAH production by PRC2); settings: read-out: (b) IC50 EED LC-MS Qualified
Description: as §1
Representative compounds of the present invention were serially and separately diluted 3-fold in DMSO to obtain a total of eight or twelve concentrations. Then the test compounds at each concentration (120 nL of each) were transferred by Mosquito into a 384-well Perkin Elmer ProxiPlate 384 plus plates. Solutions (6 μL) of 24 nM the wild type PRC2 (wtPRC2) complex and 2 μM SAM in reaction buffer (20 mM Tris, pH 8.0, 0.1% BSA, 0.01% Triton, 0.5 mM DTT) were added to the wells that were then incubated with the test compound for 20 min. […] The reaction mixture was centrifuged (Eppendorf centrifuge 5810, Rotor A-4-62) for 2 min at 2000 rpm and read on an API 4000 triple quadrupole mass spec with Turbulon Spray (Applied Biosystem) coupled with Prominence UFLC (Shimadzu). […]

COc1ccc(F)c(CNc2ccc(-c3ccc(S(=O)(=O)C4CCN(C)CC4)cc3)c3nncn23)c1
IC50 ([1]; read-out: (a) IC50, EED Alphascreen binding Qualified): 320 nM | IC50 ([2]; read-out: (c) IC50, ELISA Qualified): 183 nM

COc1cc(F)cc(F)c1CNc1ccc(-c2cnc(C)nc2C)c2nncn12
IC50 ([1]; read-out: (a) IC50 EED Alphascreen binding Qualified, EED-H3K27Me3 peptide competition, AlphaScreen): 35.9 nM | IC50 [3]: 60.7 nM | IC50 ([2]; read-out: (c) IC50 ELISA Qualified, H3K27 methylation ELISA): 20.6 nM

From US10689378B2, “Triazolopyridine compounds and uses thereof” (Novartis AG, priority 2016, dated 2020)
